Measured affinities in a library of Ab-95 light chain variants

From the AlphaSeq antibody data of Engelhart et al. 2022 (doi:10.1038/s41597-022-01779-4), copy in the FLAb collection.

All variants were tested on one target, the spike HR2 peptide PDVDLGDISGINAS (SARS-CoV-2).

Ab-95 is the parent antibody, in scFv form: VH, then a (GGGGS)3 linker, then VL. The heavy chain is unchanged in all variants.
VH: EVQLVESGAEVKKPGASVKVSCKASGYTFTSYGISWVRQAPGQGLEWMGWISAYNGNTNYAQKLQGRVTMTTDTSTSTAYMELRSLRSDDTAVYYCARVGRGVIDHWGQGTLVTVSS
VL: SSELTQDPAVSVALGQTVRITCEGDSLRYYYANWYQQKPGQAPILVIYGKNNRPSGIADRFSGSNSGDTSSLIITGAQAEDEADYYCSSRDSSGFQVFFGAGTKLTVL

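In library AAYL52, one, two or three CDR residues were substituted; doubles and triples were drawn at random. The assay is AlphaSeq: two haploid yeast populations carry antibody and antigen on their surface. Binding brings cells together so that they mate, and sequencing counts the barcode pairs among the diploids. Scores were corrected for input abundance and mapped to Kd with protein pairs of known affinity run in the same pool. Each pool was mated in three replicate cultures.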

Positions count from residue 1 of the parent VL; E23W puts W in place of E.
Scale: log10 of Kd in nM, estimated from mating counts; low values are strong binders.
"nd" means that the variant was in the library but no mating with the target was seen in that replicate; the authors take this as a sign of poor binding, and no number exists.
Parent in this assay: reference entry 2.31, copy in this library 2.25.
As a blank, each scFv also met three strains without target: over library AAYL52, 28% of these pairings were detected, typically at 3.91 and seldom below 2.90. Also given: how often the same scFv was detected with the empty control strains, with their mean in brackets.

| # | changes | log10 Kd (nM) by replicate | control signals |
|---|---|---|---|
| 1 | E23W Y30Q F98N | 1.66 1.62 1.48 | 2/9 (4.59) |
| 2 | G24D S26W Q96N | 2.70 4.27 3.19 | 1/9 (3.68) |
| 3 | N52R Q96W V97P | 3.14 3.23 3.49 | 5/9 (3.86) |
| 4 | S26V S89E F95N | 3.38 2.98 2.44 | 4/9 (4.16) |
| 5 | G24L N51C S88L | nd nd 4.13 | 1/9 (4.49) |
| 6 | Y31N K50R R90G | 2.73 2.98 2.36 | 1/9 (5.65) |
| 7 | S26Q R28S R90D | nd nd 3.48 | 1/9 (3.06) |
| 8 | R28M Y30E S55L | 1.53 1.41 1.05 | 1/9 (3.44) |
| 9 | N51Q P54Q S93T | 3.45 nd 2.11 | 0/9 |
| 10 | Y29R K50D F95G | 2.82 3.25 3.99 | 3/9 (3.83) |
| 11 | S88K G94F F95R | 2.42 2.11 2.59 | 5/9 (4.19) |
| 12 | P54W S89Q G94R | nd nd nd | 0/9 |
| 13 | Y29F K50A F95Q | 4.96 2.42 3.35 | 0/9 |
| 14 | E23F Y29K G49H | nd nd nd | 2/9 (4.44) |
| 15 | S26K P54V S89H | 3.44 nd 4.10 | 3/9 (4.21) |
| 16 | G49K D91R S92Q | nd nd nd | 1/9 (3.70) |
| 17 | Y30K S55V Q96A | 1.49 1.41 0.89 | 5/9 (4.08) |
| 18 | K50W S93Q F98P | 5.14 nd 4.01 | 1/9 (3.97) |
| 19 | N51G R53V F98L | 2.85 2.85 2.54 | 4/9 (3.85) |
| 20 | K50E V97W | 2.46 2.62 2.00 | 5/9 (4.36) |
| 21 | G24D L27Q G49A | nd 4.42 3.99 | 1/9 (3.32) |
| 22 | G49P P54T S92K | nd 4.97 nd | 1/9 (3.66) |
| 23 | K50E R90A S92I | nd nd nd | 2/9 (3.77) |
| 24 | E23W S89K R90C | 2.98 2.94 2.69 | 0/9 |
| 25 | A32Y S55Q S88I | nd 5.37 3.51 | 0/9 |
| 26 | Y31M Q96A F98T | 1.60 1.82 1.25 | 5/9 (4.39) |
| 27 | S26A R53W G94N | nd nd nd | 4/9 (3.74) |
| 28 | D25V S88I F98V | 4.51 3.68 nd | 3/9 (4.61) |
| 29 | S26F Y29G S93A | 2.06 2.08 2.53 | 2/9 (2.67) |
| 30 | G24P R53T F98R | 3.91 nd nd | 1/9 (3.29) |
| 31 | L27K S93P F95K | 3.49 3.01 3.76 | 1/9 (4.83) |
| 32 | Y29A R53N S88N | 3.83 4.51 nd | 3/9 (3.11) |
| 33 | G24L L27Q K50M | 3.65 3.38 4.42 | 7/9 (4.01) |
| 34 | R28K Y30W | 2.54 2.02 1.89 | 2/9 (3.47) |
| 35 | E23D P54E Q96W | 3.50 nd nd | 2/9 (4.16) |
| 36 | Y30M S92L | 1.63 1.83 1.44 | 2/9 (3.48) |
| 37 | L27G N52E R90D | nd nd 4.35 | 6/9 (4.03) |
| 38 | N52C R53E F95H | 4.04 4.75 nd | 2/9 (3.91) |
| 39 | G94C F95H V97D | 4.09 4.20 3.94 | 4/9 (3.85) |
| 40 | G49N N51R S92M | 3.83 nd nd | 3/9 (3.87) |

Excerpt, the final 6 entries:

changes	log10 Kd (nM) by replicate	control signals
E23D P54E Q96W	3.50 nd nd	2/9 (4.16)
Y30M S92L	1.63 1.83 1.44	2/9 (3.48)
L27G N52E R90D	nd nd 4.35	6/9 (4.03)
N52C R53E F95H	4.04 4.75 nd	2/9 (3.91)
G94C F95H V97D	4.09 4.20 3.94	4/9 (3.85)
G49N N51R S92M	3.83 nd nd	3/9 (3.87)